Results reported in US4590207A, “Therapeutic and/or preventive ophthalmic solution for intraocular hypertension and glaucoma” (Eisai Co., Ltd., priority 1984, dated 1986).

Test system: intraocular tension
Test: Lowering of intraocular tension (general statement, no method given)
Settings: oily solvent needed for effective concentration

O=[N+]([O-])OC1COC2C(O[N+](=O)[O-])COC12 (stereo not shown)
lowering of intraocular tension: would also lower intraocular tension
